For one assay, the target named is IRAK1 (Homo sapiens (Human), UniProt P51617). Briefly: Western blots of IRAK1 protein degradation. Format: cell-based. For orientation: In western blotting, separated proteins are transferred to a membrane and probed.
The next assay concerns the target IRAK4 (Homo sapiens (Human), UniProt Q9NWZ3). Kind of assay: Western blots of IRAK4 protein degradation. The assay is classed as cell-based. The settings on record: from western blots.

Chains of the proteins cited; added tags and fusions are not shown.
UniProt P51617, whole entry: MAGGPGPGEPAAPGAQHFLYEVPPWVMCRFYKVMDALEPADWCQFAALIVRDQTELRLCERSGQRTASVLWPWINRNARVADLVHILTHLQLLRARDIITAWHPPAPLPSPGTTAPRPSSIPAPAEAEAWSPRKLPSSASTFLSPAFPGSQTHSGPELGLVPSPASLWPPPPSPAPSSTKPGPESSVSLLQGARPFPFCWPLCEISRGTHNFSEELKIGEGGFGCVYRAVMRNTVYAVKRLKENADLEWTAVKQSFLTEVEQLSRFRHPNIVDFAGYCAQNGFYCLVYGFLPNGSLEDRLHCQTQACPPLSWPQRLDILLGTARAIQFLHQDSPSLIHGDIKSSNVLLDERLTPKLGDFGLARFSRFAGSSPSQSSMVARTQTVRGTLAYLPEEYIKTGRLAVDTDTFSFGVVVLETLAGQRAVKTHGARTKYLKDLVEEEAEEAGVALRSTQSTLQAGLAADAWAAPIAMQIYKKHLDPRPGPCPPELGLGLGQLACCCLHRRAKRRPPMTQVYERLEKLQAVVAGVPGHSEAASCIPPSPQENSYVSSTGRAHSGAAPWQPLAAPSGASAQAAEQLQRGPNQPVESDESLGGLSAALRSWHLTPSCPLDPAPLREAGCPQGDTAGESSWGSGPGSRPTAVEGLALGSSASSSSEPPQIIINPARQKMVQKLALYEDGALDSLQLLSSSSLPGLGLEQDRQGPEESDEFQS
UniProt Q9NWZ3, whole entry: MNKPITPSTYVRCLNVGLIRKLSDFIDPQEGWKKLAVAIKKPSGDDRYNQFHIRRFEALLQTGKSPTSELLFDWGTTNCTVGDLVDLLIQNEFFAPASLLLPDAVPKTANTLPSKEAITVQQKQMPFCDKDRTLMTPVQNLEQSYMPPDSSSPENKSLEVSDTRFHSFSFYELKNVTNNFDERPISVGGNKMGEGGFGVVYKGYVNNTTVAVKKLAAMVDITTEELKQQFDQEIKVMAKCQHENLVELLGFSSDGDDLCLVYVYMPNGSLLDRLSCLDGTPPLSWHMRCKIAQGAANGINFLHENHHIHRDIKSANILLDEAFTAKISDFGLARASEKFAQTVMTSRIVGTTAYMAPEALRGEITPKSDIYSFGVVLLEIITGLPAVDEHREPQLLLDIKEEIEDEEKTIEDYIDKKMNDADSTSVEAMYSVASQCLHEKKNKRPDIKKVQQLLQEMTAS

The term Dmax denotes the greatest extent of degradation seen. A higher Dmax goes with a fuller loss of target. For the molecule `O=C1CCC(N2C(=O)c3ccc(OCCOCCOCCN4CCN(Cc5ccc6c(c5)nc(NC(=O)c5cccc(C(F)(F)F)c5)n6[C@H]5CC[C@@H](CO)CC5)CC4)cc3C2=O)C(=O)N1` (some centres unmarked) [compound 3, N-(5-((4-(2-(2-(2-((2-(2,6-dioxopiperidin-3-yl)-1,3-dioxoisoindolin-5-yl)oxy)ethoxy)ethoxy)ethyl)piperazin-1-yl)methyl)-1-((1s,4s)-4-(hydroxymethyl)cyclohexyl)-1H-benzo[d]imidazol-2-yl)-3-(trifluoromethyl)benzamide], the “degradation of IRAK1” value on IRAK1 is reported as “no significant degradation was observed”. For the same molecule, the Dmax at IRAK4 stood at 80%.

Values taken from patent US11065231B2, “Compounds and methods for the targeted degradation of interleukin-1 receptor- associated kinase 4 polypeptides” (Arvinas Operations, Inc., priority 2017, dated 2021).
